Source: patent US20230416237A1, “AMIDE COMPOUND, PHARMACEUTICAL COMPOSITION AND USE THEREOF” (SHENZHEN BO LI JIAN MEDICINE CO., LTD., priority 2020, published 2023)

Chains of the proteins cited; added tags and fusions are not shown. Residues count along the entry.
UniProt O60674, 826-1132: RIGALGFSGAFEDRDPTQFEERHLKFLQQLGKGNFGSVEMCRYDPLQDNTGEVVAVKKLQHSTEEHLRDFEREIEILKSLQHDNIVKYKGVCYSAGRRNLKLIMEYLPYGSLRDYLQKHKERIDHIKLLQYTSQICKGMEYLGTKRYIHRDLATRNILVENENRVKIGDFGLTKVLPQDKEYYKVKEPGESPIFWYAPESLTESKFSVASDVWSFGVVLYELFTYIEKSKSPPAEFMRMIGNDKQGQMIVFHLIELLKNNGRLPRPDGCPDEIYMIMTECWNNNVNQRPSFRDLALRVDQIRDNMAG

Target: JAK2 (Homo sapiens (Human), UniProt O60674)
Assay: JAK2 inhibitory activity, mobility shift assay, 1 mM ATP
Type: biochemical
Settings: Table 7
Protocol: The JAK1 inhibitory activity and the JAK2 inhibitory activity of the amide compounds provided in the above examples were tested by the method below.
Specific steps are described below. • 1. A 1× Kinase buffer was formulated. • 2. Concentration gradients of the compound were formulated: a test compound with an initial concentration of 10000 nM (JAK1) or 30000 nM (JAK2) was diluted in a 384-well plate to a 100% DMSO solution with a 100-fold final concentration, wherein the compound was diluted by a fold of 3 to 10 concentrations. 250 nL of the compound with the 100-fold final concentration was transferred with a dispenser Echo 550 to the target plate. • 3. A kinase solution with a 2.5-fold final concentration was prepared with the 1× Kinase buffer. • 4. […] The plate was centrifuged at 1000 rpm for 30 s, shaken and uniformly mixed, and incubated for 10 min at room temperature. • 6. A mixed solution of ATP (the final concentration of ATP=1 mM) and Kinase substrate with a 5/3-fold final concentration was formulated with the 1× Kinase buffer. • 7. 15 μL of the mixed solution of ATP and the substrate with the 5/3-fold final concentration was added to initiate the reaction. • 8. […] The conversion rate was read with Caliper EZ Reader and the half maximal inhibitory concentration (IC50) was calculated.

Work on `CCS(=O)(=O)N1CC(CC#N)(n2cc(-c3ncnc4[nH]ccc34)cn2)C1` [baricitinib, reference compound] yielded an IC50 of 9 nM.
